# Binding of CDR-mutated scFvs to a peptide of the spike HR2 region

Data: MIT Lincoln Laboratory AlphaSeq set, Engelhart et al. 2022, doi:10.1038/s41597-022-01779-4, as distributed in FLAb.

All variants were tested on one target, the spike HR2 peptide PDVDLGDISGINAS (SARS-CoV-2).

The variants keep the heavy chain, the linker and the frameworks of Ab-14 (scFv order VH, the linker GGGGSGGGGSGGGGS, VL).
VH: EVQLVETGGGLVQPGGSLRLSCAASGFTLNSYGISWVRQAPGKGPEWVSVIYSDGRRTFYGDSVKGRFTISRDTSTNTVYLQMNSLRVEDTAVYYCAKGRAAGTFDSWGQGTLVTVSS
VL: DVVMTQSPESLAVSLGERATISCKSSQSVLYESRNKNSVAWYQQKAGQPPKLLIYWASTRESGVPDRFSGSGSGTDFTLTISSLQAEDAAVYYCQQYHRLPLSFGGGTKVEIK

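The starting antibody came from a phage panning campaign against this peptide. The library (AAYL50) carries one to three amino acid substitutions per variant, with no insertions or deletions. AlphaSeq pools MATa yeast showing the antibodies with MATalpha yeast showing the peptide. The frequency of each diploid, read from paired DNA barcodes, reflects how well the two displayed proteins bind. Each replicate has its own calibration line, from reference interactions of the BCL2 family. There are three technical replicates.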

Each variant is given by its three light chain CDRs, as the data file delimits them; those of the parent are KSSQSVLYESRNKNSVA, WASTRES, QQYHRLPLS. All variants listed here change R60 of the VL, counted from its first residue. Kd is apparent (estimated from mating counts) and averaged on the log scale over replicates with a signal. Smaller is tighter. Where no diploid with the target was found in any replicate, the entry reads "nd": below detection, most likely a poor binder, though not proof of it. As a blank, each scFv also met three strains without target: over library AAYL50, 18% of these pairings were detected, typically at 15 µM and seldom below 970 nM.

For KSSQSELYESRNKNSVA | WASTPES | QQYHRLPAS, the assay gave 6.5 µM (1 of 3 replicates).
For KSSQSVLYEPRNKNSVA | WASTPES | QQYHRLWLS, the assay gave 18 nM (3 of 3 replicates).
For KSSQSVLYESRNKNSVA | WKSTPES | QQYHRLPIS, the assay gave nd (0 of 3 replicates).
For KSSQSVKYFSRNKNSVA | WASTNES | QQYHRLPLS, the assay gave nd (0 of 3 replicates).
For KSSQSVIYESRNKNSVA | WCSTNES | QQYHRLPLS, the assay gave 44 µM (2 of 3 replicates).
For KYSQSVLYESRNKNSVA | WASTHES | QQYHRLVLS, the assay gave 1.2 µM (1 of 3 replicates).
For KSSQSVLYESRTKNSVA | WASTPFS | QQYHRLPLS, the assay gave nd (0 of 3 replicates).
For KSSQSVLYESRNKNSVA | WASTAES | QQYHRLPLS, the assay gave 560 nM (2 of 3 replicates).
For KSSQSVKYESRNKNSVQ | WASTPES | QQYHRLPLS, the assay gave nd (0 of 3 replicates).
For KSSQSVLYESINKKSVA | WASTTES | QQYHRLPLS, the assay gave nd (0 of 3 replicates).
For KSSQSVAYESRNKLSVA | WASTMES | QQYHRLPLS, the assay gave 2.0 µM (3 of 3 replicates).
For KSSQSVLYESRNKNSVA | WASTKQS | QQYHVLPLS, the assay gave 310 nM (2 of 3 replicates).
For KSSQSVLYESRNKNSVI | WASTIES | QQYHRLSLS, the assay gave nd (0 of 3 replicates).
For KSSQSRLYESRNKNSVA | LASTFES | QQYHRLPLS, the assay gave 830 nM (1 of 3 replicates).
For KSSQSVGYESRNKNSVA | WASTSES | QQYHRLPIS, the assay gave 8.6 µM (1 of 3 replicates).
For KSSQSVLYNSRNKNSVA | WASTQES | QQYIRLPLS, the assay gave 1.6 µM (2 of 3 replicates).
For KSSQSVLYESRNKNSVA | WASMEES | QQYHRLPLS, the assay gave nd (0 of 3 replicates).
For WSSNSVLYESRNKNSVA | WASTIES | QQYHRLPLS, the assay gave nd (0 of 3 replicates).
For KSSQSVLYVSRNKNSVA | WASTNES | QQYHRLPLV, the assay gave 4.6 µM (2 of 3 replicates).
For KSSQSVLYESRNKNFVA | WASTIES | QQYHRLPLS, the assay gave 7.2 µM (2 of 3 replicates).
For SSSQSVLYESRPKNSVA | WASTPES | QQYHRLPLS, the assay gave 310 µM (2 of 3 replicates).
For KESQSVLYESRNKNSVA | WASTGES | QQYHRLPLL, the assay gave 4.7 µM (1 of 3 replicates).
For KSSQSVLYESRNKNSVA | WASTIWS | QQYHRLPCS, the assay gave nd (0 of 3 replicates).
For KSSQSVLYRSRNKNSVA | WASQFES | QQYHRLPLS, the assay gave 290 µM (2 of 3 replicates).
For KSSQSVLYESRNKNSVA | WCSTLES | QQYHRTPLS, the assay gave nd (0 of 3 replicates).
For KSSQSVLPESRNKNLVA | WASTQES | QQYHRLPLS, the assay gave nd (0 of 3 replicates).
For KSSQSVLYESRNKNNVA | WASTAES | QQYTRLPLS, the assay gave nd (0 of 3 replicates).
For KSSQINLYESRNKNSVA | WASTFES | QQYHRLPLS, the assay gave 11 µM (1 of 3 replicates).
For KSSQSVLYHSRNKNSSA | WASTEES | QQYHRLPLS, the assay gave nd (0 of 3 replicates).
For KSSQSVLYESRNKNSVA | WASTWES | SIYHRLPLS, the assay gave nd (0 of 3 replicates).
For KSSQSVLYESRNKNSVA | WDSTGES | QQYHWLPLS, the assay gave nd (0 of 3 replicates).
For KSSQSVQYESCNKNSVA | WASTLES | QQYHRLPLS, the assay gave 80 nM (3 of 3 replicates).
For KSSQSVLYESRNKNSVA | WASTNKS | QQSHRLPLS, the assay gave 8.9 µM (1 of 3 replicates).

The first 4 entries again:

| CDR-L1 | CDR-L2 | CDR-L3 | Kd (apparent) | replicates with signal |
|---|---|---|---|---|
| KSSQSELYESRNKNSVA | WASTPES | QQYHRLPAS | 6.5 µM | 1/3 |
| KSSQSVLYEPRNKNSVA | WASTPES | QQYHRLWLS | 18 nM | 3/3 |
| KSSQSVLYESRNKNSVA | WKSTPES | QQYHRLPIS | nd | 0/3 |
| KSSQSVKYFSRNKNSVA | WASTNES | QQYHRLPLS | nd | 0/3 |

In this assay the parent's reference entry averaged 4.4 nM; its copy inside this library read 48 nM.